AlphaSeq binding of Ab-14 heavy chain variants to a spike HR2 peptide

Data: MIT Lincoln Laboratory AlphaSeq set, Engelhart et al. 2022, doi:10.1038/s41597-022-01779-4, as distributed in FLAb.

The target is the same throughout: PDVDLGDISGINAS, from the HR2 region of SARS-CoV-2 spike.

Each scFv is VH, three GGGGS repeats, VL, as in the parent Ab-14, and differs from it in the CDRs of the heavy chain only.
VH: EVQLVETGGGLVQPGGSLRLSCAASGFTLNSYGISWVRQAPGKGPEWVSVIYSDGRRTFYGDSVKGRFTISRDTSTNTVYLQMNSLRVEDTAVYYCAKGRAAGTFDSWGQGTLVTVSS
VL: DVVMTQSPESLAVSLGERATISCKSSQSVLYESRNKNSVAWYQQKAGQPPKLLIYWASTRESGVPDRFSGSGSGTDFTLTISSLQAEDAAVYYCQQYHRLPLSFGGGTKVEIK

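In library AAYL49, one, two or three CDR residues were substituted; doubles and triples were drawn at random. In AlphaSeq, yeast of one mating type display the scFv and yeast of the other type display the target. Pairs that bind mate more often; barcode pairs of the diploids are counted by sequencing. Each replicate has its own calibration line, from reference interactions of the BCL2 family. The assay was run in three technical replicates.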

Each variant is given by its three heavy chain CDRs, as the data file delimits them; those of the parent are GFTLNSYGIS, VIYSDGRRTFYGDSVK, GRAAGTFDS. Numbers give log10(Kd / nM), so 0 is 1 nM and 3 is 1 µM. Smaller is tighter. Where no diploid with the target was found in that replicate, the entry reads "nd": below detection, most likely a poor binder, though not proof of it. Background: pairings of library AAYL49 with three empty control strains gave a value in 15% of cases (median 4.06, 5th percentile 2.83). Values in that range, when seen in few replicates, are hard to tell from nonspecific mating. Also given: how often the same scFv was detected with the empty control strains, with their mean in brackets. Parent in this assay: reference entry 0.65, copy in this library 4.11 (one replicate of three).

| # | CDR-H1 | CDR-H2 | CDR-H3 | log10 Kd, replicates | empty controls |
|---|---|---|---|---|---|
| 1 | GFTLNSYGIS | VNYSRGRRTFYGDSVK | GQAAGTFDS | nd / nd / nd | 2 of 9 (3.50) |
| 2 | GFTLNSYGIS | VIYDDGYRTFIGDSVK | GRAAGTFDS | nd / nd / nd | 1 of 9 (4.53) |
| 3 | DFTLNSYGIS | VIYSDGRREFYGTSVK | GRAAGTFDS | 3.84 / 4.01 / 6.02 | 7 of 9 (4.18) |
| 4 | GFYLNSYGIS | VIYSDGRRTYYGDHVK | GRAAGTFDS | nd / 3.34 / 3.19 | 0 of 9 |
| 5 | GFTLNSYMIS | VAYSDGRRTFYGDWVK | GRAAGTFDS | nd / nd / nd | 0 of 9 |
| 6 | GFTLNSYGIS | VIYSDGRRTFYHDSVK | GRAAGEFDD | 0.16 / 0.34 / 0.28 | 0 of 9 |
| 7 | GFTLNSYGIS | VIYSDGRRTSYGDSVK | GRAAGTHDS | nd / nd / nd | 0 of 9 |
| 8 | GITLNSYNIS | VIYSDGERTFYGDSVK | GRAAGTFDS | 4.26 / 3.61 / nd | 5 of 9 (3.67) |
| 9 | GFKLSSYGIS | VSYSDGRRTFYGDSVK | GRAAGTFDS | nd / nd / nd | 0 of 9 |
| 10 | GSTLNSYGIS | VIPSDGRRTFYGDSVK | GRAAGTFDS | nd / nd / nd | 0 of 9 |
| 11 | GFTLNSYGIS | VPTSDGRRTFYGDSVK | GHAAGTFDS | 4.90 / nd / nd | 3 of 9 (4.90) |
| 12 | GFTLNSYGHS | VIYSDGRRTHYGESVK | GRAAGTFDS | nd / 5.16 / 4.22 | 1 of 9 (2.98) |
| 13 | GFTPNSYGIS | VDYSDGRRTFYGDSVK | GRAAGWFDS | nd / 4.17 / nd | 0 of 9 |
| 14 | GFTLNSYGIS | VIYQDGRRTFYGDSVQ | GRPAGTFDS | 3.88 / 3.75 / nd | 0 of 9 |
| 15 | GFTLNSYIIS | VIYSDGRHTFYGDSVK | GRAWGTFDS | 4.89 / 3.57 / 5.83 | 4 of 9 (4.06) |
| 16 | GFTLNSYQIS | VIYSDGRRTFSGFSVK | GRAAGTFDS | nd / nd / nd | 0 of 9 |
| 17 | GFTLNFYGIS | VIYSDGRRTFYGDSVK | GRAARTGDS | nd / nd / nd | 0 of 9 |
| 18 | GFTLPSYGIS | VIYSDGGFTFYGDSVK | GRAAGTFDS | 5.30 / 4.28 / nd | 6 of 9 (4.19) |
| 19 | GFTLNSYGIS | VIYSDGRREFYGDSTK | MRAAGTFDS | nd / nd / nd | 1 of 9 (4.23) |
| 20 | GFTLNGYGIS | VIYSDGRRTFLGDSVK | GRAAGTFDS | nd / nd / nd | 0 of 9 |
| 21 | GTTLNSYGIS | VIYSDGRRTFYGDSVK | GRAAGTFDS | 1.30 / 1.14 / 1.81 | 1 of 9 (3.11) |
| 22 | GFTLNSYGIS | VIYHDGRRTFYGDSVK | GRHAGTFDS | 1.45 / 2.16 / 1.70 | 2 of 9 (3.27) |
| 23 | GFILNCYGIS | VIYCDGRRTFYGDSVK | GRAAGTFDS | nd / nd / 4.80 | 0 of 9 |
| 24 | GSTLNSYGIS | VIYSDGWRTFYGDSVK | GRAAGTFAS | nd / nd / nd | 1 of 9 (3.32) |
| 25 | GFTLNSYGIS | VIWSDGRRTFLGYSVK | GRAAGTFDS | nd / nd / nd | 2 of 9 (4.07) |
| 26 | GFTLGSYGIS | VIYSAGRRTFYRDSVK | GRAAGTFDS | nd / nd / nd | 1 of 9 (3.01) |
| 27 | GCTLNSYGIS | VIYMDGRRTFYGDSVK | GRAAGPFDS | nd / nd / nd | 1 of 9 (3.59) |
| 28 | GFTLNSYGIS | VIYSDGRRTFYGDSPK | GYAAGTFCS | nd / nd / 4.33 | 2 of 9 (5.01) |
| 29 | GFTLVSYGIS | VIYSDGRRTFYGCSYK | GRAAGTFDS | nd / nd / nd | 0 of 9 |
| 30 | GFTLNSYGIS | VIYSDGRKTFYGDSVK | GHAAGTKDS | 1.62 / 1.73 / 2.35 | 0 of 9 |
| 31 | GFTLNSYGTS | VIYSDGRRTFYKDSSK | GRAAGTFDS | nd / 4.05 / nd | 5 of 9 (4.52) |
| 32 | GFTLYSYGIS | VIYSDGVRTFYGDSVK | GRAAGRFDS | 2.83 / 1.54 / 1.71 | 0 of 9 |
| 33 | GPTLNSYGIS | VIYSDGRRTFYGDSVK | GTAAGTFDS | 4.04 / nd / 4.65 | 0 of 9 |
| 34 | GFTLNSYGIS | QIKSDGRRTFYGQSVK | GRAAGTFDS | nd / nd / nd | 0 of 9 |
| 35 | GFTLNSYTIS | VIYEDGRRTFYGDSVK | GRAAGTSDS | 4.85 / 3.58 / nd | 6 of 9 (4.61) |
| 36 | GFTLNEYGIS | VIYPDGRRTFYGDSVK | QRAAGTFDS | nd / 3.46 / nd | 1 of 9 (1.76) |
| 37 | GFTLNSYGIS | VIYDDGRRTFYGDSVK | GRAAGTFDS | nd / nd / nd | 0 of 9 |
| 38 | HFTLNSYGIS | VTYSDGRRIFYGDSVK | GRAAGTFDS | nd / nd / nd | 0 of 9 |
| 39 | GFTLNSYGIS | VIYSDGRRTFKGDSAK | PRAAGTFDS | nd / nd / nd | 1 of 9 (2.43) |
| 40 | GFTLNSYGIS | VFYSDGRRTFYGDSVK | GRATGTFDV | nd / nd / 4.04 | 0 of 9 |
| 41 | GFTLNSYGIS | VINSDGRRTAYGDSVK | GRAAGTFDS | nd / nd / nd | 0 of 9 |
| 42 | GFTLNSYGIS | VIYSDYKRTFYGDSVK | GRAAGTGDS | nd / nd / nd | 0 of 9 |
| 43 | GFTLNSYGIS | VIYSYGRRTGYGASVK | GRAAGTFDS | nd / 3.48 / nd | 6 of 9 (4.56) |
| 44 | GFTENSYGIS | VIYSDGRFTFRGDSVK | GRAAGTFDS | 4.50 / nd / nd | 4 of 9 (3.65) |
| 45 | AFTLWSYGIS | VIYSDGRRCFYGDSVK | GRAAGTFDS | nd / nd / 3.27 | 0 of 9 |
| 46 | RITLNSYGIS | VIYSDGRRTFYGDSVK | GRAAMTFDS | nd / nd / nd | 0 of 9 |
| 47 | GFTLNSYGIS | KIYSDGRRTFYGVSVK | GRAAKTFDS | nd / 3.39 / nd | 2 of 9 (3.72) |
| 48 | GFTKNSYGIS | VIYSDGRRTFYGDSVK | GRAAGTFDS | 5.51 / nd / nd | 1 of 9 (5.00) |
| 49 | GFTLNSRGIS | VIGSDGLRTFYGDSVK | GRAAGTFDS | 4.25 / nd / nd | 4 of 9 (4.99) |
| 50 | GFTLNSYGIS | VEYSDGRRTFYGDSEK | GRAAGTFDD | nd / nd / nd | 0 of 9 |
| 51 | GFTLNSYGIS | VIYSDGRATFYGDSLK | GRAAGTFPS | 5.56 / nd / 2.56 | 3 of 9 (4.13) |